Structures can show the parent of a compound that is named as a salt.
How the values were obtained:
MMP-1 = molecular target: T1, MMP-1 (Homo sapiens, UniProt P03956); conditions: at 20 μM
T1 sequence (P03956 100-469): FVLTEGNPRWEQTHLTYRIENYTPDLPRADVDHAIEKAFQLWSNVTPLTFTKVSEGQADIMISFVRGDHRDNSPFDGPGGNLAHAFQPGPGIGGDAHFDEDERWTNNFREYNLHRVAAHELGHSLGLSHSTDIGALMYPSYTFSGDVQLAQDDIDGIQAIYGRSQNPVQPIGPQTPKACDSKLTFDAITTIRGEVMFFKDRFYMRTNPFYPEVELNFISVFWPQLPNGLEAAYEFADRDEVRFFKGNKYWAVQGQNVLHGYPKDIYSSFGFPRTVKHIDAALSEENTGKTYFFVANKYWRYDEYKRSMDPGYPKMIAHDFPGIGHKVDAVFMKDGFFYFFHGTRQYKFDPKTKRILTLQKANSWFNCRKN

By UniProt entry, the sequences of proteins in these tests, tags left out. Residues count along the entry.
UniProt P08254, 100-477: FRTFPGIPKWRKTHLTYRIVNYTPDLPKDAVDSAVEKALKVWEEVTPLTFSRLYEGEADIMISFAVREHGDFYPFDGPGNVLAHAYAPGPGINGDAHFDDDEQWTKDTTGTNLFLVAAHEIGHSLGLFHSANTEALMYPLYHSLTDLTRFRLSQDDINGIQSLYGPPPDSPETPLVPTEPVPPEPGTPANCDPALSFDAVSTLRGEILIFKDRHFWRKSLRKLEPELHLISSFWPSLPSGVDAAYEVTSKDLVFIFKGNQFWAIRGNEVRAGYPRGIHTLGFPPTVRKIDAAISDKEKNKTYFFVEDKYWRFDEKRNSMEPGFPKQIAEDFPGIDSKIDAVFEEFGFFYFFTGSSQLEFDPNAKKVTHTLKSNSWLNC

MMP-7 = molecular target: T2, MMP-7 (Homo sapiens, UniProt P09237); conditions: at 200 μM
T2 sequence (P09237 95-267): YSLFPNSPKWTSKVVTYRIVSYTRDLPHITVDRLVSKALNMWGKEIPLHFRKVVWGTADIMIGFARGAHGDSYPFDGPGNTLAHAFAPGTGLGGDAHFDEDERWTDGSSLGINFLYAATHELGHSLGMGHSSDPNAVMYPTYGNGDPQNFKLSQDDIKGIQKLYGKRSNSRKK

MMP-3 = MMP-3 (Homo sapiens, UniProt P08254); assay: biochemical; conditions: read-out: inhibition of MMP-3

Nc1ccc(Oc2ccc(S(=O)(=O)CC3CS3)cc2)cc1 (stereo not drawn) [Compound 6, 4-[4-((Thiiran-2-yl)methylsulfonyl)phenoxy]benzamine.HCl salt]
inhibition of MMP-1 (MMP-1): No inhibition
inhibition of MMP-7 (MMP-7): No inhibition
inhibition at 20 µM (MMP-3): 3%
